Data published in ChEMBL document CHEMBL1275386, “Probing the active-site requirements of human intestinal N-terminal maltase-glucoamylase: Synthesis and enzyme inhibitory activities of a six-membered ring nitrogen analogue of kotalanol and its de-O-sulfonated derivative” (Bioorg Med Chem, 2010).

Protein sequences, listed by entry. Tags and fused reporters are not part of them. Lines headed by an entry give the natural chain unless they say otherwise; changes in a name come on top.
UniProt O43451: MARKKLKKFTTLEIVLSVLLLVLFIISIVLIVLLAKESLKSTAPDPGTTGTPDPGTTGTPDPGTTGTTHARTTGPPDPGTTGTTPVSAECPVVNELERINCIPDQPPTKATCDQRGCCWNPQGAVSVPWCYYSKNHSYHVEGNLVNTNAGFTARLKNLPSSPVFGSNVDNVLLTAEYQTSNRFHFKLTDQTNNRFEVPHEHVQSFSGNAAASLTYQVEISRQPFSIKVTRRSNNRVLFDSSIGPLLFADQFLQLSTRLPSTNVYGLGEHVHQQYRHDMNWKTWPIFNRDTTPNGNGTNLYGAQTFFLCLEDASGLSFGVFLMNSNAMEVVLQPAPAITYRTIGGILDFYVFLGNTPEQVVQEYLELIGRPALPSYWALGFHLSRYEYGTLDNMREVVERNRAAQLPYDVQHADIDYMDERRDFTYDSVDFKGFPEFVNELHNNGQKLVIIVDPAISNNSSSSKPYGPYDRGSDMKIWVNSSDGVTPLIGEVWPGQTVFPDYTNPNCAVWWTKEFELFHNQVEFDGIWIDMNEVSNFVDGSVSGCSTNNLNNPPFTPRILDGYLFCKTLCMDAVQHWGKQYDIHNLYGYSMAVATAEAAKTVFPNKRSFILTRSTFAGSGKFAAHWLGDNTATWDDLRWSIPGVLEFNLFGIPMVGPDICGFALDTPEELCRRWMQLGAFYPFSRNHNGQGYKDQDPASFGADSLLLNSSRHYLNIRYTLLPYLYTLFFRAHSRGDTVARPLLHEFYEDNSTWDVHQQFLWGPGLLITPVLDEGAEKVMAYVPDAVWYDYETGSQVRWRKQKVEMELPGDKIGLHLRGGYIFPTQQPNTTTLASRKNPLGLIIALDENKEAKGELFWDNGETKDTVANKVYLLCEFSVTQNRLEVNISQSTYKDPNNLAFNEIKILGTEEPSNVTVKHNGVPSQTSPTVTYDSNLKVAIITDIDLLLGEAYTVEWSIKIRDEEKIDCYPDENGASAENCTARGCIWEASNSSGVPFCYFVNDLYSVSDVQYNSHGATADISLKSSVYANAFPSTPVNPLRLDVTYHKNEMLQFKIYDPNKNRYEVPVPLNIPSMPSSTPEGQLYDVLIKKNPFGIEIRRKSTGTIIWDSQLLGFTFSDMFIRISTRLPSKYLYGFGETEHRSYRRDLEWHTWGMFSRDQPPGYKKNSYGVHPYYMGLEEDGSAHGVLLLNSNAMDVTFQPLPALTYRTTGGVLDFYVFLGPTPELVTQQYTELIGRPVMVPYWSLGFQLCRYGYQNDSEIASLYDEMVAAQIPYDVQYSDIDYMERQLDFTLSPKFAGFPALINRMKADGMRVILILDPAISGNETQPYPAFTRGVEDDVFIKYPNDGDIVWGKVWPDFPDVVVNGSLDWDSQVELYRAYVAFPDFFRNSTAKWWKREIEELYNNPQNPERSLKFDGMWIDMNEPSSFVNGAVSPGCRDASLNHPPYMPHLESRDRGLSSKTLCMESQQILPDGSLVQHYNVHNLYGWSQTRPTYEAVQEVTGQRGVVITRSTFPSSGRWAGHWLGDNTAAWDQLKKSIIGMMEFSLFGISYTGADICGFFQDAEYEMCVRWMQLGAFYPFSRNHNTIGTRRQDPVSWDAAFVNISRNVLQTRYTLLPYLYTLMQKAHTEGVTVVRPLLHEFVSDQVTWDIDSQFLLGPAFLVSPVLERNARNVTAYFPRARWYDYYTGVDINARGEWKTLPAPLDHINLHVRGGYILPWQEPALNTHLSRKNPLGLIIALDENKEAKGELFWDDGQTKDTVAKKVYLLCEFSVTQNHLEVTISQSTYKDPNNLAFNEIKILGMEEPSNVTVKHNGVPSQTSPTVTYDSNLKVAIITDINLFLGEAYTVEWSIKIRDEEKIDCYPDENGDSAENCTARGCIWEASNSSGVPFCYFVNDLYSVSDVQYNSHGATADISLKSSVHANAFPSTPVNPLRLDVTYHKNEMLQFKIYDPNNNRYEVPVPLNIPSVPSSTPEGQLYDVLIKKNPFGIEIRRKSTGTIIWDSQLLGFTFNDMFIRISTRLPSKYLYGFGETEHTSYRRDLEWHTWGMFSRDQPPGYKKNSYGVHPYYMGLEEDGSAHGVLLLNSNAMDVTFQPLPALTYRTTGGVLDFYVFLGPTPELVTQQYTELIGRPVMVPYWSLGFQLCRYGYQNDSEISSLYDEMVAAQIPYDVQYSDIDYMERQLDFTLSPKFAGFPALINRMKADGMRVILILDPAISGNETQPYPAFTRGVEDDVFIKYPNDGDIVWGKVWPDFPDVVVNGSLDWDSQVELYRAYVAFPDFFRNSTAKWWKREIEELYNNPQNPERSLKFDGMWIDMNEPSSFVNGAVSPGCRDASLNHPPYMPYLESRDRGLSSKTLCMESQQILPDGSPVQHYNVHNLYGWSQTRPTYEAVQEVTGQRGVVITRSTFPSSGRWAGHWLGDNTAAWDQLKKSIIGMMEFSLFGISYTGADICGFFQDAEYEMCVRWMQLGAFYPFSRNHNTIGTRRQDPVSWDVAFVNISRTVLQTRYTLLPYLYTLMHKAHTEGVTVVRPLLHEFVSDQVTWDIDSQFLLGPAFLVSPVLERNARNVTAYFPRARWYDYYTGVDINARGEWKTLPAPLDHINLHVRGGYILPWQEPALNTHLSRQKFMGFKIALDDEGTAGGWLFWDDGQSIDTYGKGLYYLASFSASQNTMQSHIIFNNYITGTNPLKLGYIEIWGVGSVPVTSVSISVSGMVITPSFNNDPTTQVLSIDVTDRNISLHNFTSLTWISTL

Biological target: Maltase-glucoamylase (Homo sapiens, UniProt O43451)
Assay: Inhibition of human recombinant N-terminal subunit of maltase-glucoamylase after 60 mins by glucose oxidase assay

## O=S(=O)([O-])O[C@@H]([C@H](O)[C@H](O)[C@@H](O)CO)[C@H](O)C[Se+]1C[C@@H](O)[C@H](O)[C@H]1CO (stereo partly specified)
  Ki: 80 nM
